Laboratory results: US20230332181A1

What was measured:
[1] = target: SAd36 fiber-T4 fibritin-SpT (FFSpT) on the SAd36.FFSpT virus (simian (chimpanzee) adenovirus species E serotype 36; bacteriophage T4) (UniProt P10104); test: virus incubated with Cas9SpC at 37° C. for 2 h, SDS-PAGE with Coomassie staining
[2] = target: SAd36 hexon with hypervariable region 5 replaced by SpT (HSpT) on the SAd36.HSpT virus (simian (chimpanzee) adenovirus species E serotype 36); test: as above
[3] = target: SAd36 fiber-T4 fibritin-SpT (FFSpT) on the SAd36.FFSpT virus (simian (chimpanzee) adenovirus species E serotype 36; bacteriophage T4) (UniProt P10104); test: comparison of the two conjugated viruses
[4] = target: SAd36 fiber-T4 fibritin-SpT (FFSpT) on the SAd36.FFSpT virus (simian (chimpanzee) adenovirus species E serotype 36; bacteriophage T4) (UniProt P10104); test: cell-based or functional assay
[5] = target: wild-type SAd36 viral proteins; test: cell-based or functional assay
[6] = target: SAd36 hexon with hypervariable region 5 replaced by SpT (HSpT) on the SAd36.HSpT virus (simian (chimpanzee) adenovirus species E serotype 36); test: cell-based or functional assay

**Q.** What does the source list for “3×NLS_SpCas9_linker SpC_6×His (from UniProt Q99ZW2 1-1368) (enzyme)”?
**A.** FFSpT sites on the virion conjugated (sites per virion) [1]: 36; fraction of the 720 HSpT sites converted to the Cas9SpC-conjugate form (fraction of the 720 HSpT sites) [2]: 0.5; amount of Cas9SpC on the FFSpT virus against the HSpT virus [3]: 10 times less; dual-edited (tdTomato-positive) mAi9 cells on day 4, fluorescence microscopy [4]: 23.9%; dual-edited (tdTomato-positive) mAi9 cells on day 4, fluorescence microscopy [5]: 0.5%; dual-edited (tdTomato-positive) mAi9 cells on day 4, fluorescence microscopy [6]: 27.9%
